Experiments:
[1] = molecular target: GPIIb-IIIa (Homo sapiens (Human)) (UniProt P08514); assay: 125I-labelled ligand on GPIIb-IIIa-coated wells; no inhibitor
[2] = molecular target: GPIIb-IIIa (Homo sapiens (Human)) (UniProt P08514); assay: 125I-labelled ligand on GPIIb-IIIa-coated wells; inhibitor 2 mM EDTA
[3] = molecular target: GPIIb-IIIa (Homo sapiens (Human)) (UniProt P08514); assay: 125I-labelled ligand on GPIIb-IIIa-coated wells; inhibitor Mab 16.12
[4] = molecular target: GPIIb-IIIa (Homo sapiens (Human)) (UniProt P08514); assay: competition with Fn binding to purified immobilized GPIIb-IIIa (FIG. 6); reference: added intact fibronectin

Substance | Counts ×10^-3 (counts ×10^-3) [1] | Counts ×10^-3 (counts ×10^-3) [2] | Counts ×10^-3 (counts ×10^-3) [3] | fold less potent than intact fibronectin (weight basis) [4]
maltose binding protein (MBP) alone (from UniProt P0AEX9) | 15 | -4 | 9 | 
MBP/III8+9 fusion protein (maltose binding protein fused to Fn residues 1255-1456) (from UniProt P0AEX9) | 124 | 4 | 18 | 4 fold
